We go through seven molecules from patent publication US8143426B2, “IAP inhibitors” (TetraLogic Pharmaceuticals Corporation, priority 2006, dated 2012).

Protein sequences, listed by entry. Tags and fused reporters are not part of them. Residues count along the entry.
UniProt P98170, 241-356 limits assumed: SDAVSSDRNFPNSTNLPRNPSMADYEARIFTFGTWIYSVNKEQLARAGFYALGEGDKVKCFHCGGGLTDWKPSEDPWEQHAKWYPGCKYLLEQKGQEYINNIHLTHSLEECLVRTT

Each structure is given as a SMILES string. pKd: −log10 of the molar value.

The target of this assay is XIAP BIR3 (Homo sapiens, UniProt P98170). The assay is described as follows: Fluorescence polarization binding of IAP antagonists to IAP-BIR3 (competition with AbuRPF-K(5-Fam)-NH2). The conditions noted are these: Table 1, monomeric IAP antagonists (sugar-modified). Here is the method: The binding affinity of illustrative compounds of the present invention to an IAP was determined substantially as described by Nikolovska-Coleska, Z. et. al. (Analytical Biochemistry (2004), vol. 332:261-273) using a variety of fluorogenic substrates and is reported as a Kd value. Briefly, various concentrations of IAP antagonists were mixed with 5 nM fluorescently labeled peptide (AbuRPF-K(5-Fam)-NH2) and 40 nM of an IAP-BIR3 for 15 min at RT in […] of 0.1M Potassium Phosphate buffer, pH 7.5 containing […] bovine g-globulin. Following incubation, the polarization values (mP) were measured on a Victor2V using a 485 nm excitation filter and a 520 nm emission filter. IC50 values were determined from the plot using nonlinear least-squares analysis using GraphPad Prism.
(In general: Fluorescence polarisation rises when a labelled molecule tumbles more slowly, as on binding a larger partner.)
Molecule `CN[C@@H](C)C(=O)N[C@H](C(=O)N1C[C@@H](O)C[C@H]1Cc1c(-c2ccc(F)cc2)n([C@H]2O[C@@H](C)[C@@H](O)[C@@H](O)[C@@H]2O)c2ccc(C)cc12)[C@@H](C)OC` showed a negative-log Kd (pKd) of 6.00 to 7.00.

For `CN[C@@H](C)C(=O)N[C@H](C(=O)N1CCC[C@H]1Cc1cn([C@@H]2OC[C@@H](O)[C@H](O)[C@H]2O)c2cc(F)ccc12)C(C)C`, the pKd is more than 7.00.

In turn, `CN[C@@H](C)C(=O)N[C@H](C(=O)N1CCC[C@H]1Cc1cn([C@H]2O[C@@H](C)[C@@H](O)[C@@H](O)[C@@H]2O)c2c(C)cccc12)C(C)C` showed a pKd of 6.00 to 7.00. As for `CN[C@@H](C)C(=O)N[C@H](C(=O)N1CCC[C@H]1Cc1c(-c2ccc(F)cc2)n([C@H]2O[C@@H](C)[C@@H](O)[C@@H](O)[C@@H]2O)c2ccc(C)cc12)[C@@H](C)OC`, the figure is 6.00 to 7.00.

On to `CN[C@@H](C)C(=O)N[C@H](C(=O)N1C[C@@H](O)C[C@H]1Cc1c(-c2ccc(F)cc2)n([C@H]2O[C@@H](C)[C@@H](O)[C@@H](O)[C@@H]2O)c2ccc(C)cc12)C(C)(C)C`, for which the negative-log Kd (pKd) is 6.00 to 7.00. In the case of `CN[C@@H](C)C(=O)N[C@H](C(=O)N1CCC[C@H]1Cc1cn([C@@H]2OC[C@@H](O)[C@H](O)[C@H]2O)c2cc(F)ccc12)C1CCCCC1` it was 6.00 to 7.00; in that of `CN[C@@H](C)C(=O)N[C@H](C(=O)N1CCC[C@H]1Cc1c(-c2ccc(F)cc2)n([C@H]2O[C@@H](C)[C@@H](O)[C@@H](O)[C@@H]2O)c2ccc(C)cc12)C(C)(C)C`, 6.00 to 7.00.

As usually defined, the pKd is the negative decadic logarithm of the Kd, by convention in mol/L. A lower pKd goes with a large Kd.
